What was measured:
Translocator protein [1] = target: T1, Translocator protein (Rattus norvegicus, UniProt P16257); test: Inhibition of [3H]PK11195 binding to mitochondrial rat testis Peripheral type benzodiazepine receptor (PBR)
Translocator protein [2] = target: T1, Translocator protein; test: Inhibition of [3H]PK11195 binding to Peripheral type benzodiazepine receptor (PBR) in rat cortex homogenate by 50%
Translocator protein [3] = target: T1, Translocator protein; test: Inhibition of [3H]Ro-5-4864 binding to mitochondrial rat testis Peripheral type benzodiazepine receptor (PBR)

Sequences of proteins named here, by UniProt entry; tags and fusion partners are left off.
UniProt P16257, whole entry: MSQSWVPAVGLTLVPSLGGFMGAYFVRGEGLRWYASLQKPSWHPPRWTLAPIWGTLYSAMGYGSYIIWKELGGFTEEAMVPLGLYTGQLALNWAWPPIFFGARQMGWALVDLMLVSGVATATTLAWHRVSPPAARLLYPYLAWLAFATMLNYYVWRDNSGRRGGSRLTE

`CNC(=O)OC1=C(c2ccccc2)Oc2ccccc2-n2cccc21` gave a Ki (Translocator protein [1]) of 0.96 nM, a Ki (Translocator protein [2]) of 2.26 nM and a Ki (Translocator protein [3]) of 0.76 nM.

— ChEMBL document CHEMBL1135787, “Synthesis of new molecular probes for investigation of steroid biosynthesis induced by selective interaction with peripheral type benzodiazepine receptors (PBR)” (J Med Chem, 2002)
